Read-outs that look alike come from different tables or passages of the source.
Experiments:
[1] = molecular target: human Factor XIa (Homo sapiens (Human), UniProt P03951); experiment: Factor XIa Assay; type: biochemical; conditions: read-out: FXIa Ki
[2] = molecular target: Human plasma kallikrein (Homo sapiens (Human), UniProt P03952); experiment: Kallikrein Assay; conditions: read-out: Kallikrein, purified Human plasma kallikrein 0.5 nM, Acetyl-K-P-R-AFC, pH 7.4, Ki from IC50 by Cheng Prusoff

The chains behind the UniProt entries cited, without tags or fusion partners. Residues count along the entry.
UniProt P03951, 388-625 limits assumed: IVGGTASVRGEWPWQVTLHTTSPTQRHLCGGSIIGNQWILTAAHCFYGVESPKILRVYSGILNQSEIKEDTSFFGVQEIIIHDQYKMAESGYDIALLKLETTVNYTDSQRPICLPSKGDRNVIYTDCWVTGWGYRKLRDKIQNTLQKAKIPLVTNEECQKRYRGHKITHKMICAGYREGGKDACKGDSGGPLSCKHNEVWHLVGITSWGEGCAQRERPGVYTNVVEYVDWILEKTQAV
UniProt P03951, 19-387 partner limits assumed: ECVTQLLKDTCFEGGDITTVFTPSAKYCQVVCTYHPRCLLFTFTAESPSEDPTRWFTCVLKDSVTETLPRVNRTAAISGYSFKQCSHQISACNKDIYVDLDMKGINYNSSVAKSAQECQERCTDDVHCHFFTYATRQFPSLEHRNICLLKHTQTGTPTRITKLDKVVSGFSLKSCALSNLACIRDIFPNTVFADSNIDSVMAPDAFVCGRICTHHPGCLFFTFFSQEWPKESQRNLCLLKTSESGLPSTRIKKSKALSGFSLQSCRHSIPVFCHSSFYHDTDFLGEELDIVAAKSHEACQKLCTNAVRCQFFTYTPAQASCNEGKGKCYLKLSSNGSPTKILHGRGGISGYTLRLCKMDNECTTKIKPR
UniProt P03952, 391-638 limits assumed: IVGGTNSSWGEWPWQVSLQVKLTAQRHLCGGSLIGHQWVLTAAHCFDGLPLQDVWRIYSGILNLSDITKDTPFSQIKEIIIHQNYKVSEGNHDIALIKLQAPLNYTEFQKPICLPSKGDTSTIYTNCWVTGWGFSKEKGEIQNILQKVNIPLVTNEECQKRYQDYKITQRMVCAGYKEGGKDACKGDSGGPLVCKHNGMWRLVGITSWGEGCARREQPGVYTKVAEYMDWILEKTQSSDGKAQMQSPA
UniProt P03952, 20-390 partner limits assumed: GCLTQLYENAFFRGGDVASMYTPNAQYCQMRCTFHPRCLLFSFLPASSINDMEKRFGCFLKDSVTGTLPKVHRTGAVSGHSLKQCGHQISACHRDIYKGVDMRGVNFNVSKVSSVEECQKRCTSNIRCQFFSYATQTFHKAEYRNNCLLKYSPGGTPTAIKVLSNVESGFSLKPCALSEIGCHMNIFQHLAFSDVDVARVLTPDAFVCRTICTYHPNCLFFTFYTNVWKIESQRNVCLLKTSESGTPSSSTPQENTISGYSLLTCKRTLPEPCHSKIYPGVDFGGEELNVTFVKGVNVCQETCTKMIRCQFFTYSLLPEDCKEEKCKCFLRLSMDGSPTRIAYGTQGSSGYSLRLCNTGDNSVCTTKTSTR

SMILES | Ki [1] | Ki [2] | Ki ([2]; tested form: TFA) | Ki ([1]; tested form: TFA)
Nc1ncc(C(=O)N[C@@H](Cc2ccccc2)C(=O)N2CCC3(C2)OC(=O)Nc2ccc(Cl)cc23)cn1 (some centres unmarked) | 5 µM |  |  | 
O=C1Nc2ccc(Cl)c(F)c2[C@@]2(CCCN(C(=O)[C@H](Cc3ccccc3)NC(=O)c3cc(-c4ncc[nH]4)cs3)C2)O1 | 0.0653 µM |  |  | 
O=C1Nc2ccc(Cl)cc2[C@@]2(CCCN(C(=O)[C@H](Cc3ccccc3)NC(=O)c3cccc(N4CCOCC4=O)c3)C2)O1 | 0.661 µM |  |  | 
O=C1Nc2ccc(Cl)cc2[C@@]2(CCN(C(=O)[C@H](Cc3ccccc3)NC(=O)c3cccc(C(=O)O)c3)C2)O1 | 0.0447 µM |  |  | 
O=C1CC(=O)c2cc(C(=O)N[C@@H](CC(=O)N3CCCC3)C(=O)N3CCC[C@@]4(C3)OC(=O)Nc3ccc(Cl)c(F)c34)ccc2N1 | 0.00039 µM | 0.00094 µM |  | 
Nc1ccc(C(=O)N[C@@H](CC2CC2)C(=O)N2CCC[C@@]3(C2)OC(=O)Nc2ccc(Cl)c(F)c23)cn1 |  |  | 0.00179 µM | 0.014 µM
O=C1Nc2ccc(Cl)c(F)c2[C@@]2(CCCN(C(=O)[C@H](Cc3cccc(F)c3)NC(=O)c3cccc(-c4nn[nH]n4)c3)C2)O1 | 0.0455 µM | 0.00065 µM |  | 
Cc1[nH]c2ccc(C(=O)N[C@@H](Cc3ccccc3)C(=O)N3CCC[C@@]4(C3)OC(=O)Nc3ccc(Cl)cc34)cc2c1C(=O)OC(C)(C)C | 0.303 µM |  |  | 
COC(=O)NC1CCC(C(=O)N[C@@H](Cc2ccccc2)C(=O)N2CCC[C@@]3(C2)OC(=O)Nc2ccc(Cl)cc23)CC1 (some centres unmarked) | 0.0337 µM |  |  | 
CNc1cc(C(=O)N[C@@H](CC2CC2)C(=O)N2CCC[C@@]3(C2)OC(=O)Nc2ccc(Cl)c(F)c23)ccn1 |  |  | < 0.00136 µM | 0.00911 µM
